This assay deals with ductal carcinoma in situ, MNU-induced tumor formation. Nature of the assay: MNU-induced tumor formation rat model, teat infusion of anticancer agents. The class given is in vivo, Sprague Dawley rats. The following applies: 1.67 mg/teat; necropsy Day 120±2. The source says: The objective of this study was to evaluate the efficacy of five test articles (four marketed anticancer agents), administered directly into the mammary gland ducts via teat infusion, for therapy and prevention of ductal carcinoma in situ in an N-Nitroso-N-Methylurea (MNU)-induced tumor formation rat model. Based upon previous animal studies, candidates were selected for more rigorous evaluation at B Braun Biological Test Center (BTC) in Irvine, Calif. This facility was chosen to continue the preclinical work, started by Dr. Sukumar at JHU in order to support studies with a larger number of animals, in compliance with Good Laboratory Practices.
Methods: The cytotoxic agents included carboplatin (tested at two dose levels), Taxol® (paclitaxel), Herceptin® (trastuzumab), and Doxil® (doxorubicin HCl). The agents were tested in 120 female Sprague Dawley rats (n=20 per treatment). On Day 1, each rat was injected intraperitoneally with MNU to induce tumor formation. On Day 15, each rat received one of the following six intra-ductal treatments: No treatment (control); infusion of carboplatin (0.75 mg/teat); infusion of Taxol® (0.15 mg/teat); infusion of carboplatin (0.42 mg/teat); infusion of Herceptin® (1.67 mg/teat); or infusion of Doxil® (0.15 mg/teat). Each rat was dosed in 11-12 teats except for one rat with 5 non-infusable teats. […]

On to trastuzumab [Herceptin®], for which the “rats with no visible masses or mammary lesions at necropsy” value is reported as 4 of 20.

(Values after patent publication US20130046171A1, “DEVICE AND METHOD FOR ACCESSING AND TREATING DUCTS OF MAMMARY GLANDS” (priority 2008, published 2013).)
